# This is a sample that favours compounds with a hit; in the whole collection about 1.2% have one here.
# C2C12 statin: protects C2C12 myotubes from simvastatin toxicity; ATP luminescence, 48 h; scaled: DMSO 0, geranylgeraniol control 100; rescue of ATP level, % at 7.49 µM; 0.78% of 330,000 active; AID 602340;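 active means mean ATP rescue above about 67%, or every replicate alone reaching that limit, limit read from the data, passing the limit was not always enough; inconclusive means no clear call, values can overlap the other calls; inactive means mean under the limit and some replicate under it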;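 further: myotubes were challenged with 10 µM simvastatin during compound exposure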
# Cneo AK release: causes C. neoformans cell lysis; adenylate kinase release luminescence, 4 h; normalised: neutral wells 0, clomiphene wells 100; lysis activity, % at 15 µM; 0.2% of 360,000 active; AID 651654;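 active means mean lysis activity across replicates of at least 80%, whatever share of replicates individually reach that level; inactive means mean lysis activity below 80%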
#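 Assay system: C. neoformans cells. Amount: yeast cell density of 5 × 10^6 cells/mL. Technique: AK luminescence. Buffer or medium: YPD. Times: static 4 h at 37 °C with compound, 1 h detection. Dosing: single-point compound dose. Read-out: lysis from increased AK signal.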
# miR122 inh: miR-122 inhibition in Huh7 cells. Huh7 miR-122 Renilla luciferase sensor, 48 h; neutral wells = 0, positive control = 100. activation (reporter increase), % at 12.5 µM. 0.3% of 340,000 active;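 active means mean replicate activation score at least 90 and every replicate individually at or above 90; inconclusive means only one of the two criteria met; inactive means neither criterion met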;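 further: higher luciferase means less miR-122 activity so hits act as miR-122 inhibitors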
# N-glyco inh: N-linked glycosylation inhibition. D54 ERlucT glycosylation luciferase reporter, 24 h; percent of 100 nM tunicamycin response. reporter increase, % at 12.5 µM. 0.23% of 360,000 active;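 active means mean luciferase reporter signal, scaled so untreated is 0 and the glycosylation-blocking control 100, at or above a set limit in every replicate; inconclusive means mean reaches the limit but not every replicate does; inactive means mean below the limit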;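 further: luciferase carries N-glycosylation sites so blocking glycosylation raises the light; 0% = median of neutral control wells and 100% = median of 100 nM tunicamycin wells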
# Yeast UUG start-1: yeast start codon fidelity modulation; AID 602363; activity score, % at 18.7 µM; S. cerevisiae UUG-firefly luciferase reporter, luminescence/redox ratio; 0.13% of 350,000 active;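 active means replicate mean at a twofold rise or more, about +100% in these data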;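 further: firefly luciferase made from a UUG start codon reports start codon fidelity; reporter light over untreated wells divided by growth signal over untreated wells; some hits fall short of that in this replicate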
# Yeast UUG start-2: modulators of start codon recognition fidelity in yeast; shares compounds with Yeast UUG start-1; S. cerevisiae UUG-start firefly luciferase, luminescence, 4 h; 100% means double the DMSO signal; activation, % at 38 µM; 540 tested, under 10 active; AID 652061;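 active means signal increase whose fitted curve reaches an absolute level of 40 at a concentration under 10 µM; inactive means activity opposite to the expected increase, or the rest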
# * marks the source's active call; other numbers are inactive results; i = inactive; ? = inconclusive; . = no result; [ ] = dose if it differs, or a comment.
nr | smiles | C2C12 statin | Cneo AK release | miR122 inh | N-glyco inh | Yeast UUG start-1 | Yeast UUG start-2
1 | O=C(CNC(=O)c1cccc(F)c1)OCC(=O)N1CCCCC1 | . | . | . | 1 | . | .
2 | O=C(CNC(=O)c1cccc(F)c1)OCC(=O)N1CCN(C(=O)c2ccco2)CC1 | 1 | -1 | -3 | 2 | 213* | -2
3 | CO[C@H]1CN(C)C(=O)c2cc(NC(=O)Nc3ccccc3Cl)ccc2OC[C@@H](C)NC[C@H]1C | -8 | 1 | 12[16.7 µM] | . | 4 | .
4 | COc1ccc(C/C(C)=N/NC(=O)c2ccc(C)cc2C)cc1 | -1 | 0 | -6 | 0 | 539* | -3
5 | COc1ccccc1NC(=O)c1ccc(NS(=O)(=O)c2c(C)noc2C)cc1 | -29 | -6 | 6 | 0 | 442* | -4
6 | COc1ccc(NC(=O)c2ccc(NS(=O)(=O)c3c(C)noc3C)cc2)cc1OC | -36 | -2 | -1 | 0 | 1 | .
7 | COc1ccccc1C1(CCN=Cc2ccc(N(C)C)cc2)CCOC(C)(C)C1 (stereo not drawn) | . | 1 | -5 | 1 | 15 | .
8 | CN(C)c1ccc(C=NCCC2(O)CCOC(C)(C)C2)cc1 (stereo not drawn) | 17 | 1 | -5 | 4 | 118* | -2
9 | CCC(=O)N1C[C@@H](O)COC[C@H]2O[C@@H](CC(=O)NCC3CCCCC3)CC[C@@H]21 | 8 | -3 | 0[16.7 µM] | . | 112* | i
10 | CCC(=O)N1C[C@@H](O)COC[C@@H]2O[C@@H](CC(=O)NCC3CCCCC3)CC[C@H]21 | -1 | -2 | -6[16.7 µM] | . | -5 | .
11 | CCCCN1C(=O)C(CC(=O)NC2CC2)CC(C(=O)N(CC)CC)=C1C (stereo not drawn) | 4 | -1 | 1 | -1 | -13 | .
12 | CC1CN(Cc2c(O)ccc3c(=O)c(-c4ccccc4)coc23)CC(C)O1 (stereo not drawn) | 1 | -2 | 2 | -2 | -2 | .
13 | CC1CN(Cc2c(O)ccc3c2oc(=O)c2ccccc23)CC(C)O1 (stereo not drawn) | 10 | 8 | -4 | 0 | 156* | 15
14 | O=C(CNC(=O)c1ccccc1F)NCCc1ccc(Cl)cc1 | 4 | 11 | 2 | -1 | -11 | .
15 | O=C(CNC(=O)c1ccccc1F)NCCOc1cccc(Cl)c1Cl | 1 | 0 | 0 | 2 | 517* | 2
16 | COc1ccc2oc(C(=O)N3CCN(S(=O)(=O)c4c(C)c(C)cc(C)c4C)CC3)c(C)c2c1 | -4 | 1 | -1 | -6 | -2 | .
17 | CCOC(=O)CNC(=O)c1ccccc1 | 1 | 0 | -1 | 1 | 103* | 10
18 | C[C@@H]1CCCCO[C@H](CN(C)Cc2ccccc2)[C@@H](C)CN([C@H](C)CO)C(=O)c2cc(NS(=O)(=O)c3ccc(F)cc3)ccc2O1 | . | 0 | 6[16.7 µM] | . | 6 | .
19 | CC(C)c1cn(CC[C@H]2CC[C@H](N)[C@@H](CO)O2)nn1 | -16 | 1 | 11[16.7 µM] | . | 134* | i
20 | CN(C)Cc1cn(CC[C@@H]2CC[C@@H](N)[C@H](CO)O2)nn1 | -5 | -1 | 1[16.7 µM] | . | 8 | .
21 | O=C(CN1c2ccccc2Sc2ccccc21)N/N=C/c1ccc(Cl)cc1 | . | 3 | -9 | -4 | 180* | -7
22 | COc1cc(/C=C/C(=O)OCC(=O)N2CCN(S(=O)(=O)c3ccc(C)cc3C)CC2)cc(Cl)c1OC | 1 | -1 | -5 | 1 | 0 | .
23 | Cc1[nH]c2ccccc2c1/C=N/NC(=O)c1cc(-c2ccccc2)n[nH]1 | . | 0 | -5 | 1 | 169* | 1
24 | Cc1[nH]c2ccccc2c1/C=N/NC(=O)c1ccccc1 | . | . | . | -1 | . | .
25 | C[C@H]1CN([C@@H](C)CO)C(=O)c2cc(C#CC3(O)CCCC3)cnc2O[C@@H]1CN(C)C(=O)Nc1ccc2c(c1)OCO2 | 8 | 0 | . | . | 7 | .
26 | CO[C@@H]1CN(C)C(=O)c2ccc(NC(=O)c3ccc(F)cc3)cc2OC[C@H](C)N(C(C)=O)C[C@H]1C | 2 | -1 | . | . | -4 | .
27 | COc1cc2c(C#N)c(N3CCc4ccccc4C3)nc(N)c2c(N)n1 | -24 | 0 | 2 | 26* | 502* | -4
28 | CCOc1ccc(CCNS(=O)(=O)c2c(C)cc(C)cc2C)cc1OCC | . | . | . | . | . | i
29 | N#C[C@@H]1[C@@H](c2ccc(C#CC3(O)CCCC3)cc2)[C@@H](CO)N1C(=O)C1CCCCC1 | 21 | 0 | . | . | 10 | .
30 | O=C(C[C@@H]1CC[C@@H]2[C@H](COC[C@H](O)CN2C(=O)c2ccccc2)O1)N1CCc2ccccc2C1 | 32 | 4 | 6[16.7 µM] | . | 22 | .
31 | C[C@@H]1CN([C@H](C)CO)C(=O)c2cc(NC(=O)CCN3CCOCC3)ccc2O[C@H]1CN(C)C(=O)Nc1cccc2ccccc12 | 38 | -2 | -6[16.7 µM] | . | 6 | .
32 | Cc1ccc(NC(=O)/C(=C\c2cccc([N+](=O)[O-])c2)NC(=O)c2cccs2)cc1 | 19 | 0 | ? | -1 | 557* | 6
33 | Cc1ccc(NC(=O)/C(=C/c2cccc([N+](=O)[O-])c2)NC(=O)C2CCCCC2)cc1 | -19 | 3 | . | -1 | -15 | .
34 | C[C@@H]1CCCCO[C@@H](CN(C)Cc2ccc(C(=O)O)cc2)[C@H](C)CN([C@@H](C)CO)C(=O)c2cc(NS(=O)(=O)c3ccc(F)cc3)ccc2O1 | . | -12 | 5[16.7 µM] | . | 112* | i
35 | Cc1ccc(NC(=O)CSc2nnc([C@H](C)NC(=O)OC(C)(C)C)o2)c(C)c1 | . | 2 | -10 | 3 | 214* | 3
36 | Cc1cccc(NC(=O)CSc2nnc([C@H](C)NC(=O)OC(C)(C)C)o2)c1C | 2 | -1 | -1 | 0 | -9 | .
37 | CCCC#Cc1cnc2c(c1)C(=O)N([C@H](C)CO)C[C@H](C)[C@@H](CN(C)C(=O)CCN1CCCCC1)O2 | 0 | 2 | -2 | 0 | 166* | 4
38 | CC(C)CC#Cc1cnc2c(c1)C(=O)N([C@H](C)CO)C[C@H](C)[C@@H](CN(C)C(=O)CC1CC1)O2 | . | -1 | 27[16.7 µM] | . | 147* | i
39 | COc1ccc(S(=O)(=O)Nc2ccc3c(c2)C(=O)N([C@@H](C)CO)C[C@H](C)[C@@H](CN(C)Cc2ccccc2)OCCCC[C@@H](C)O3)cc1 | . | -3 | 4[16.7 µM] | . | 4 | .
40 | CC(C)n1nnnc1SCC(=O)N1N=C(c2cccs2)CC1c1cccs1 (stereo not drawn) | 1 | -1 | -2 | -3 | -4 | .

# Arranged by count of non-hydrogen atoms (lowest first): 5 of the compounds above.
nr | smiles | C2C12 statin | Cneo AK release | miR122 inh | N-glyco inh | Yeast UUG start-1 | Yeast UUG start-2
24 | Cc1[nH]c2ccccc2c1/C=N/NC(=O)c1ccccc1 | . | . | . | -1 | . | .
21 | O=C(CN1c2ccccc2Sc2ccccc21)N/N=C/c1ccc(Cl)cc1 | . | 3 | -9 | -4 | 180* | -7
32 | Cc1ccc(NC(=O)/C(=C\c2cccc([N+](=O)[O-])c2)NC(=O)c2cccs2)cc1 | 19 | 0 | ? | -1 | 557* | 6
25 | C[C@H]1CN([C@@H](C)CO)C(=O)c2cc(C#CC3(O)CCCC3)cnc2O[C@@H]1CN(C)C(=O)Nc1ccc2c(c1)OCO2 | 8 | 0 | . | . | 7 | .
31 | C[C@@H]1CN([C@H](C)CO)C(=O)c2cc(NC(=O)CCN3CCOCC3)ccc2O[C@H]1CN(C)C(=O)Nc1cccc2ccccc12 | 38 | -2 | -6[16.7 µM] | . | 6 | .

# (listing goes on)
nr | smiles | C2C12 statin | Cneo AK release | miR122 inh | N-glyco inh | Yeast UUG start-1 | Yeast UUG start-2
41 | COc1cccc(Oc2nc3ncn(Cc4ccccc4)c3c(=O)n2C)c1 | 1 | 1 | 0 | 0 | 113* | 13
42 | COc1cccc(Cn2c(Oc3ccccc3)nc3c2c(=O)n(C)c(=O)n3C)c1 | 15 | 4 | -8 | -4 | -12 | .
43 | C=CCn1c(SCC(=O)c2cc(C)n(C)c2C)nnc1-c1ccncc1 | 2 | 2 | -7 | -3 | -16 | .
44 | Cc1cc(C(=O)CSc2nnc3ccccn23)c(C)n1-c1ccccc1 | . | . | . | -22 | . | .
45 | Cc1cc(C(=O)CSc2nnc(-c3ccccc3)n2-c2ccccc2)c(C)n1-c1ncn[nH]1 | 12 | -2 | -6 | 0 | 653* | 11

# Screens (PubChem)
